Reference: US20180271853A1, “Method of Use for Inhibitors of Epidermal Growth Factor Receptor Variant III” (METASTAT, INC., priority 2015, published 2018)

Columns and labels:
[1] = system: tumors expressing EGFR-viii; conditions: clinical studies evaluating reversible or covalent EGFR inhibitors in GBM; cited from earlier work
[2] = biological target: phosphoY1173-EGFRviii expressed in U87MG tumor cells (Homo sapiens, UniProt P00533, DELINS30-297G); experiment: Inhibition of phosphoY1173-EGFRviii in U87MG tumor cells engineered to express EGFR-viii (in-cell ELISA); conditions: FIG. 1

| SMILES | benefit for GBM in clinical studies [1] | activity against EGFR-viii [2] |
| --- | --- | --- |
| COc1cc2ncnc(Nc3ccc(F)c(Cl)c3)c2cc1OCCCN1CCOCC1 [gefitinib] | failed to demonstrate significant benefit | – |
| C=CC(=O)Nc1cccc(Oc2nc(Nc3ccc(N4CCN(C)CC4)cc3OC)ncc2Cl)c1 [WZ4002] | – | weak activity |
